Literature values, collected in patent publication US20180280372A1, “COMPOSITIONS AND METHODS FOR INHIBITING AUTOPHAGY AND CONTRACEPTION” (Washington University, priority 2016, published 2018).

The chains behind the UniProt entries cited, without tags or fusion partners. Where a name states a change or a piece, a line headed by the entry shows the natural chain unless it says otherwise.
UniProt P54578: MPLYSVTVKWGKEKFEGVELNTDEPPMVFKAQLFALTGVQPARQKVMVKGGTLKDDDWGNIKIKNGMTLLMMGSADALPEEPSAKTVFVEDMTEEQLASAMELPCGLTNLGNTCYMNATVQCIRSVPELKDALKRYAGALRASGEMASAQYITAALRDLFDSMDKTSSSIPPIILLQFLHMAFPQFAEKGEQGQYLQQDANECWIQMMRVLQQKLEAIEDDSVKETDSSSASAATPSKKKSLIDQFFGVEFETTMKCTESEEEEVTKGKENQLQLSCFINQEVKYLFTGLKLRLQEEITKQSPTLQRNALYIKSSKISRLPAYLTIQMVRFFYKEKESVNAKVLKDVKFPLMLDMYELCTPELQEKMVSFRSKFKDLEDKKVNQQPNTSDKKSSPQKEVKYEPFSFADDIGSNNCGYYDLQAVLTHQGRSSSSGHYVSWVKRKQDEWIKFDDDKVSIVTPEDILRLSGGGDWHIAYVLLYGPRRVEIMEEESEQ
UniProt P78527, whole entry: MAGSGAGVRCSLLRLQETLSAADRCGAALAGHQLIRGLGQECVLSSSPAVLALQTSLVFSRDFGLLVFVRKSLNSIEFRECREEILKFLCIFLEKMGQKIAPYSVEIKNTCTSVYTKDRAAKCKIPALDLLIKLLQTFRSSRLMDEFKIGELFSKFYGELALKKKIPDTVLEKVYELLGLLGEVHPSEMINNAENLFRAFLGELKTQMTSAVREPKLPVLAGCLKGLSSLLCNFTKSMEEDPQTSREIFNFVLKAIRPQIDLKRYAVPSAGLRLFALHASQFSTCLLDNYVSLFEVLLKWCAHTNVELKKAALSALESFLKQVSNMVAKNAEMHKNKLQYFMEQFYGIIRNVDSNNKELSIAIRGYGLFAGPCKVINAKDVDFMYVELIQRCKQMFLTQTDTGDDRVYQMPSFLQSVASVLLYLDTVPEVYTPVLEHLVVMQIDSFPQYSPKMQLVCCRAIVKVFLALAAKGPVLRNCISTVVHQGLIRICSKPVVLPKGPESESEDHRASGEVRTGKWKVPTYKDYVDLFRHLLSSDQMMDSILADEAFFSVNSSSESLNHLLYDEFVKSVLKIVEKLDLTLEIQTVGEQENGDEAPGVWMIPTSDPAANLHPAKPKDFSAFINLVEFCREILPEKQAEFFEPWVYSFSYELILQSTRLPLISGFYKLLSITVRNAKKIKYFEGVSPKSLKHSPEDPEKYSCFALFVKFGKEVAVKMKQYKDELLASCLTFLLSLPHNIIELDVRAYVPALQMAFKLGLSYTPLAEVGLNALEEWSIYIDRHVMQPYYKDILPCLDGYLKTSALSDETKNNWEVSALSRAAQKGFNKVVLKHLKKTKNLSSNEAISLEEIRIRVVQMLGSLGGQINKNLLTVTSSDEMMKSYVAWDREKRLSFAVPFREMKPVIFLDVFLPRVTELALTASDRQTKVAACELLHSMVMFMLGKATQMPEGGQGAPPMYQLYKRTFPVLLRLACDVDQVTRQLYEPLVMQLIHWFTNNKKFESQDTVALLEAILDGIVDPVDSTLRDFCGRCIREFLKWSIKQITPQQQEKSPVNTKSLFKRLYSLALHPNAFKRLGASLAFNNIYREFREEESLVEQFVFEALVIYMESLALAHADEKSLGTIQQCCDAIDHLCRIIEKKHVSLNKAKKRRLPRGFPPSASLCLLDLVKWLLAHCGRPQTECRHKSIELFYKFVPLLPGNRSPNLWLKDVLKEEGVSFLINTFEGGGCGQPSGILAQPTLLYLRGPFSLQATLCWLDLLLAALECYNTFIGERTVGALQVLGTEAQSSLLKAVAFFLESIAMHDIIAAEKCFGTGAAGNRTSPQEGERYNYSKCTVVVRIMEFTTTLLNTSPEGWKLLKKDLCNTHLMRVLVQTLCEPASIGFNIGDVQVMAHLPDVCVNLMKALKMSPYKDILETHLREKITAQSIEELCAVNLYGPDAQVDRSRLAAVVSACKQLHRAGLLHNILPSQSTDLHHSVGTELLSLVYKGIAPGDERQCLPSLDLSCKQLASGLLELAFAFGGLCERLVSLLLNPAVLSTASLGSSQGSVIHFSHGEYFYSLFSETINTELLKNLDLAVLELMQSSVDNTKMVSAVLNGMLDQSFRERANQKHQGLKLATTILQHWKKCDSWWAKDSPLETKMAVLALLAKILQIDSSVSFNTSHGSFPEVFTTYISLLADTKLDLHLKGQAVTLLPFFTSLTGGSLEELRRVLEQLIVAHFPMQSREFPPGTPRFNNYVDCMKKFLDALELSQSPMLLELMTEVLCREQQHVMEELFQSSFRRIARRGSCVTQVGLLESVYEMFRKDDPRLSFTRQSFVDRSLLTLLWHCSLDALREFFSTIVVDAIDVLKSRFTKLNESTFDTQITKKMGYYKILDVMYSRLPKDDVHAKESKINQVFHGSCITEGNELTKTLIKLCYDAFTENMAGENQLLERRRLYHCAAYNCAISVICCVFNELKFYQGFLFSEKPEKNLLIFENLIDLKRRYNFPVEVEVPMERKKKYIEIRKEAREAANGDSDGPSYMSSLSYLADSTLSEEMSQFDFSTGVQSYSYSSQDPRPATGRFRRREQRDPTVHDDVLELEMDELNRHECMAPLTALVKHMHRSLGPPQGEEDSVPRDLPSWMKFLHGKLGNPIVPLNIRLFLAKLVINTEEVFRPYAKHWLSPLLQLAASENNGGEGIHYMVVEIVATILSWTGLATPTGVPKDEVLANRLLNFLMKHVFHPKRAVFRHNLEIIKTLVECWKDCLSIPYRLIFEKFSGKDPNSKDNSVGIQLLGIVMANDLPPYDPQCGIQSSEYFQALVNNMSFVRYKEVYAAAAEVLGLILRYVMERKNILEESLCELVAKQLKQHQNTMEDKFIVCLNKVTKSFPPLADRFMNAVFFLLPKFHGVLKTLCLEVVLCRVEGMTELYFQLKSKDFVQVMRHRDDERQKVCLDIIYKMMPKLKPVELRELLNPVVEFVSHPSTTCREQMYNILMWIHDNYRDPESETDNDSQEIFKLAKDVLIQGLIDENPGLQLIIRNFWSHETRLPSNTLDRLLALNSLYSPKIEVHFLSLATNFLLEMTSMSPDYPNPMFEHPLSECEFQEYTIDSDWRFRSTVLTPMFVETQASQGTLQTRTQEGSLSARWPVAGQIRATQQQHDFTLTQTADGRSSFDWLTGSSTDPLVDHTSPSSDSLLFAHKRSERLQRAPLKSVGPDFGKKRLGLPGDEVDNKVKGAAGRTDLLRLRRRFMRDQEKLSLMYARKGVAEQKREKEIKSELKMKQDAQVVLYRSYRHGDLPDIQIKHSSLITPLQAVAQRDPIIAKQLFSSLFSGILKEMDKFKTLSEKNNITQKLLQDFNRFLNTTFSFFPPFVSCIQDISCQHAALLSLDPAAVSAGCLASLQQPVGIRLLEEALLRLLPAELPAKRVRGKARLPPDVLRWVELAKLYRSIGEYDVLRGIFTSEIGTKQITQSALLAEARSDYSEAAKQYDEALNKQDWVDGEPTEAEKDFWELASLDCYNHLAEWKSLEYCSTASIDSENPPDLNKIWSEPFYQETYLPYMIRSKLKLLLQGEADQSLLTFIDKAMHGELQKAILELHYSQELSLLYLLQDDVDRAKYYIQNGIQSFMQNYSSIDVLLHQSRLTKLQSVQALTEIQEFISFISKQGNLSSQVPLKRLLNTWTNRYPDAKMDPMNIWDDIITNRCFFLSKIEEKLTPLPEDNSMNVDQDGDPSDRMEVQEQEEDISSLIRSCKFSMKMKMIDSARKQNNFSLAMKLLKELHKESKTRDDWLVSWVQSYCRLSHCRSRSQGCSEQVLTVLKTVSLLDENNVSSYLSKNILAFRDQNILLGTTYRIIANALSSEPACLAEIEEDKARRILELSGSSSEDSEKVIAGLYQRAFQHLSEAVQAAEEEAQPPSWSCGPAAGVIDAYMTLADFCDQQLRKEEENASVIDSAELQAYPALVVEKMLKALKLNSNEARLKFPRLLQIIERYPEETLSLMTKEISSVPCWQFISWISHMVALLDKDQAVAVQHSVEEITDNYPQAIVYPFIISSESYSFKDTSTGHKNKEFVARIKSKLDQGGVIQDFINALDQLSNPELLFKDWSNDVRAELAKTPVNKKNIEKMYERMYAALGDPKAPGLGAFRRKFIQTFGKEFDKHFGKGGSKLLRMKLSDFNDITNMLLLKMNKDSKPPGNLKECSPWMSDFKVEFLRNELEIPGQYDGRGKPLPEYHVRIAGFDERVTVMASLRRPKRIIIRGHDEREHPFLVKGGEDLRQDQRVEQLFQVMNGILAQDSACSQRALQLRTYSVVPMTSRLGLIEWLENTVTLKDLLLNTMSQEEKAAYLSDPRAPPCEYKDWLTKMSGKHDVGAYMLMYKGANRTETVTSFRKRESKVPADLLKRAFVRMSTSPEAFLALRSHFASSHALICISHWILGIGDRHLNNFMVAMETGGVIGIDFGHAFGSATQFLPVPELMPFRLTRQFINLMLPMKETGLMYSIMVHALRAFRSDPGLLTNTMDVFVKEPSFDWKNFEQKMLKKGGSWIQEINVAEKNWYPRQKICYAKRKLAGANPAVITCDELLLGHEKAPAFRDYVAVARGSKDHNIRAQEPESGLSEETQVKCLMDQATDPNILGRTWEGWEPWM

Assays:
HDAC1A = settings: cited from earlier work
human USP14 = human USP14 (Homo sapiens, UniProt P54578); settings: cited from earlier work
DNA-PK = DNA-PK (Homo sapiens, UniProt P78527); settings: read-out: IC50 DNA-PK; cited from earlier work
[1] = target: T1, ubiquitin C-terminal hydrolase L3 (Homo sapiens, UniProt P15374); settings: L3 vs L1; cited from earlier work
T1 sequence (P15374 1-230): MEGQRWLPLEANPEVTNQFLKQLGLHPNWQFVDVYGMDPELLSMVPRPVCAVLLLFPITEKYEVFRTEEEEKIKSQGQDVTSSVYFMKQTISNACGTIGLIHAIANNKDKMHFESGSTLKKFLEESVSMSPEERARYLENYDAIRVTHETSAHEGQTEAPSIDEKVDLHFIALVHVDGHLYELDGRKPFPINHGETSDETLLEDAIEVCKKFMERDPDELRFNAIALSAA

In the case of Givinostat, the IC50 (HDAC1A) is listed as 16 nM.
In the case of `Cc1cc(C(=O)CN2CCCC2)c(C)n1-c1ccc(F)cc1` [IU1], the IC50 (human USP14) is given as 4.7 µM.
In the case of `COC[C@H]1OC(=O)c2coc3c2[C@@]1(C)C1=C(C3=O)[C@@H]2CCC(=O)[C@@]2(C)C[C@H]1OC(C)=O` [Wortmannin], the IC50 (DNA-PK) is given as 16 nM.
For TCID, the “selective to L1” value [1] is listed as 125 fold.
